Measured values published in PubChem BioAssay AID1159614 (National Center for Advancing Translational Sciences (NCATS), 2016).
This is a selection; strong and weak results do not stand in their true shares. Activity calls are given as the source filed them. Calls follow the shape of the dose curve; as a rule, active = well fitted activation curve with a large enough effect; inconclusive = small, poorly fitted or top-dose-only effect; inactive = no such curve, though single readings can be large or run the other way.
Also: 0% is about no effect; nearly all actives have a fitted effect of over 65% in size.

Protein sequences, listed by entry. Tags and fused reporters are not part of them.
UniProt P54803, whole entry G286D: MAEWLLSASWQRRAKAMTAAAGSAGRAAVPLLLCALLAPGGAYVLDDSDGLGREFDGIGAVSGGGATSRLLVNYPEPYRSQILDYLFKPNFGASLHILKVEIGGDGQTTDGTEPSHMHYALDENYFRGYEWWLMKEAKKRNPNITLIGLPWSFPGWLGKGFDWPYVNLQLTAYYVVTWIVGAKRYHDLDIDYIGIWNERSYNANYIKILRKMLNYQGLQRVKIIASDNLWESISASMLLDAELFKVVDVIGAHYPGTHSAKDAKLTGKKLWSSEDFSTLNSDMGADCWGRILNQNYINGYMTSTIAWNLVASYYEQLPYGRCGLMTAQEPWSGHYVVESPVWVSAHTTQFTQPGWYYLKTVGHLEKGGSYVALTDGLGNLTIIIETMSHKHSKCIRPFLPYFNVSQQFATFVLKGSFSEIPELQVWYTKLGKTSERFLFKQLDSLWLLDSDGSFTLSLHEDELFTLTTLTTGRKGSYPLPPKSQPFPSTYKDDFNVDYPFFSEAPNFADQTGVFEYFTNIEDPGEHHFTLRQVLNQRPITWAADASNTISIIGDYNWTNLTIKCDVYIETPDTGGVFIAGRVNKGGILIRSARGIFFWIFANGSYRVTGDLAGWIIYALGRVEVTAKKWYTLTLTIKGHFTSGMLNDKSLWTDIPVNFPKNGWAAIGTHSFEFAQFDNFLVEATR

These compounds were tested against Galactocerebrosidase (Homo sapiens) (UniProt P54803) (assay: A Novel Cell-Based Assay to Identify Small Molecules for B -Galactocerebrosidase). Conditions: 145M-Twi-hGALC-G270D cells (Twitcher mouse brain line with human GALC G270D), HMU-beta-Gal fluorescence, 48 h; at 57.5 µM (top of the series).
In the case of `O=C(NCC1(N2CCOCC2)CCCCC1)c1ccccc1`, the activation is reported as inactive: -15%. In the case of `O=C(NCC1(N2CCOCC2)CCCCC1)c1ccc([N+](=O)[O-])cc1`, the activation is reported as inactive: -3.71%. In the case of `CCC(=O)N(c1ccccc1)C1CCNCC1`, the activation is reported as inactive: -2.29%. In the case of `COc1cc(C(=O)NCC2(N3CCOCC3)CCCCC2)cc(OC)c1OC`, the activation is reported as inactive: -6.65%. In the case of `CC(C)(C)c1ccc(C(=O)NCC2(N3CCOCC3)CCCCC2)cc1`, the activation is reported as inactive: -13.4%. `Cc1ccccc1C(=O)NCC1(N(C)C)CCCCC1` was tested, and the activation was inactive: -7.41%. For `CN(C)C1(CNC(=O)c2ccc(C(C)(C)C)cc2)CCCCC1`, the activation was inactive: -3.14%. `COc1ccccc1C(=O)NCC1(N2CCOCC2)CCCCC1` was tested, and the activation was inactive: -11.8%. `O=C(NCC1(N2CCOCC2)CCCCC1)c1ccc(Cl)cc1` was tested, and the activation was inactive: 0.3%. `CCOC(=O)N1CCC(=O)CC1` was tested, and the activation was inactive: -14.7%. For `CCCCOc1ccccc1C(=O)NCC1(N2CCOCC2)CCCCC1`, the activation was inactive: -5.22%. `O=C(NCC1(N2CCOCC2)CCCCC1)c1ccccc1Br` was tested, and the activation was inactive: 1.46%. With `CCCOc1cccc(C(=O)NCC2(N3CCOCC3)CCCCC2)c1` the activation was inactive: -5.59%. In the case of `CCOc1ccc(C(=O)NCC2(N3CCOCC3)CCCCC2)cc1`, the activation is reported as inactive: 0.119%.
